From PubChem BioAssay AID1460 (National Center for Advancing Translational Sciences (NCATS), 2008) come the findings set out here.

Chains of the proteins cited; added tags and fusions are not shown. Residues count along the entry.
UniProt P10636, 561-689 P618L limits assumed: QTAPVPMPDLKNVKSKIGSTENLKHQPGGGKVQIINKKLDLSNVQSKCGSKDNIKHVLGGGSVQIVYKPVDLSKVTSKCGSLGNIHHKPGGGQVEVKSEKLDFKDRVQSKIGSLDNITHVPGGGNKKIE

The list shows a part of the results, in another mix than the full data. Records with an inconclusive call do not appear. Activity calls are given as the source filed them. The call rests on the fitted dose curve; in most records, active means well fitted inhibition curve with a large enough effect; inconclusive means small, poorly fitted or top-dose-only effect; inactive means flat fitted curve, though single readings scatter.
On the % scale 0 is the no-effect control and ±100 the full control effect.

The experiment deals with Microtubule-associated protein tau (Homo sapiens) (UniProt P10636). Nature of the experiment: qHTS for Inhibitors of Tau Fibril Formation, Thioflavin T Binding. Further: nearly all actives have a fitted effect of over 55% in size. Conditions: recombinant tau K18 P301L (four-repeat tau fragment), heparin-induced fibrillization, ThT fluorescence; at 57.4 µM (top of the series). On the technique in general: Quantitative high-throughput screening tests each substance at several concentrations.
Take `O=[N+]([O-])c1cc([N+](=O)[O-])c(-n2nnc3ccccc32)c([N+](=O)[O-])c1`: the activity, negative = inhibition is inactive: -5.41%.

As to `CCCOc1ccc(NP(C)(=O)Oc2ccc(Cl)cc2)cc1` (stereo not given), the activity, negative = inhibition was inactive: -12.1%.

As for `CP(=O)(Nc1ccc(SC(F)(F)F)cc1)Oc1ccccc1` (stereo not given), the activity, negative = inhibition was inactive: -3.6%.

Regarding `COc1ccccc1OP(C)(=O)Nc1c(C)cccc1C` (stereo not given), the activity, negative = inhibition was inactive: -2.37%.

In the case of `CN1CCCCC1COC(=O)C1(O)c2ccccc2CCc2ccccc21` (stereo not given), the activity, negative = inhibition is inactive: -1.21%.

On to `O=[N+]([O-])OCC(CO[N+](=O)[O-])(CO[N+](=O)[O-])CO[N+](=O)[O-]`, for which the activity, negative = inhibition was inactive: -5.23%.

Regarding `Cc1cc(C)cc(OP(C)(=O)Nc2ccc(C)cc2C)c1` (stereo not given), the activity, negative = inhibition is inactive: -16.3%.

For the compound `CCOC(=O)c1ccc(NP(C)(=O)Oc2cc(C)cc(C)c2)cc1` (stereo not given), the activity, negative = inhibition is inactive: -13.3%.

Consider `Cc1cc(C)cc(OP(C)(=O)Nc2ccccn2)c1` (stereo not given), for which the activity, negative = inhibition is inactive: -4.82%.

For `CP(=O)(Nc1cccc(Br)c1)Oc1ccccc1` (stereo not given), the activity, negative = inhibition is inactive: -3.31%.

Consider `Cc1ccc(C)c(NP(C)(=O)Oc2ccccc2)c1` (stereo not given), for which the activity, negative = inhibition is inactive: 4.21%.

On to `CCN(CC)CCCOC(=O)C(O)(c1ccccc1)c1ccccc1`, for which the activity, negative = inhibition was inactive: 1.33%.

Consider `CC(C)(C)c1ccc(OP(C)(=O)Nc2ccc(SC(F)(F)F)cc2)cc1` (stereo not given), for which the activity, negative = inhibition was inactive: -18.5%.

As to `Cc1cccc(C)c1OP(C)(N)=O` (stereo not given), the activity, negative = inhibition was inactive: -5.89%.

With `COc1ccccc1OP(C)(=O)Nc1cc(Cl)ccc1C` (stereo not given), the activity, negative = inhibition is inactive: -12.4%.

Regarding `COc1ccc(OP(C)(=O)Nc2cccc(F)c2)cc1` (stereo not given), the activity, negative = inhibition is inactive: -11.8%.

On to `Cc1cc(C)cc(OP(C)(N)=O)c1` (stereo not given), for which the activity, negative = inhibition was inactive: -6.09%.

On to `CCOC(=O)c1ccc(NP(C)(=O)Oc2ccccc2)cc1` (stereo not given), for which the activity, negative = inhibition was inactive: -5.86%.

For `COc1ccccc1OP(C)(=O)Nc1ccc(C)cc1` (stereo not given), the activity, negative = inhibition is inactive: -7.82%.

On to `Cc1ccc(NP(C)(=O)Oc2ccccc2)c(C)c1` (stereo not given), for which the activity, negative = inhibition is inactive: 3.84%.

Turning to `COc1ccccc1OP(C)(=O)Nc1ccccc1` (stereo not given), the activity, negative = inhibition was inactive: 0.0739%.

Consider `CP(=O)(Nc1ccccc1Br)Oc1ccccc1` (stereo not given), for which the activity, negative = inhibition was inactive: -8.55%.

In the case of `CP(=S)(Nn1cnnc1)Oc1ccccc1` (stereo not given), the activity, negative = inhibition was inactive: -5.69%.

For `CP(=O)(NC(=O)Nc1ccccc1)Oc1ccccc1` (stereo not given), the activity, negative = inhibition is inactive: -6.58%.

On to `Cc1cc(C)cc(OP(C)(=O)Nc2ccc(SC(F)(F)F)cc2)c1` (stereo not given), for which the activity, negative = inhibition is inactive: -17.8%.

Take `Cc1cccc(C)c1OP(C)(=O)Nc1ccc(SC(F)(F)F)cc1` (stereo not given): the activity, negative = inhibition is inactive: -5.26%.

For `CP(=O)(Oc1ccccc1)OC(c1ccccc1)C(F)(F)F` (stereo not given), the activity, negative = inhibition was inactive: -1.56%.

Regarding `CP(=O)(Nc1ccccn1)Oc1ccc(Cl)cc1` (stereo not given), the activity, negative = inhibition is inactive: 0.777%.

For `CCOP(C)(=S)SCC(=O)NC(C)C(=O)O` (stereo not given), the activity, negative = inhibition was inactive: -7.3%.

For the compound `CCOC(=O)c1ccc(NP(C)(=O)Oc2ccc(OC)cc2)cc1` (stereo not given), the activity, negative = inhibition is inactive: -7.35%.

Turning to `CP(=O)(Oc1ccccc1)N1CCOC1=O` (stereo not given), the activity, negative = inhibition was inactive: -6.34%.

Regarding `CCc1ccc(OP(C)(=O)Nc2cccnc2)cc1` (stereo not given), the activity, negative = inhibition is inactive: 0.123%.

Take `COc1ccccc1OP(C)(=O)Nc1c(C)n(C)n(-c2ccccc2)c1=O` (stereo not given): the activity, negative = inhibition is inactive: -5.57%.

As for `OCCSCCO`, the activity, negative = inhibition is inactive: 1.87%.

In the case of `O=C(OCCCN1CCCC1)C(O)(c1ccccc1)C1CCCCC1` (stereo not given), the activity, negative = inhibition was inactive: -7.3%.

For the compound `CCN(CC)CC(O)COC(=O)C(O)(c1ccccc1)C1CCCCC1` (stereo not given), the activity, negative = inhibition is inactive: -10.6%.

`COc1ccc(OP(C)(=O)Nc2ccc(Br)cc2)cc1` (stereo not given): the activity, negative = inhibition was inactive: 2.98%.

For `CN(C)C(=O)c1c([N+](=O)[O-])cc([N+](=O)[O-])cc1[N+](=O)[O-]`, the activity, negative = inhibition was inactive: -18.8%.

For `CP(=O)(Nc1ccc(Cl)cc1)Oc1ccc(F)cc1` (stereo not given), the activity, negative = inhibition is inactive: -0.165%.

`COc1ccccc1OP(C)(=O)Nc1ccccc1Br` (stereo not given): the activity, negative = inhibition is inactive: -4.61%.

Consider `CC(C)(C)c1ccc(OP(C)(=O)O)cc1`, for which the activity, negative = inhibition is inactive: 0.447%.

Turning to `CP(=O)(OC12CC3CC(CC(C3)C1)C2)OC12CC3CC(CC(C3)C1)C2`, the activity, negative = inhibition is inactive: -15.4%.

`CCOC(=O)c1ccc(NP(C)(=O)Oc2ccc(Cl)cc2)cc1` (stereo not given): the activity, negative = inhibition was inactive: -6.1%.

For `COc1ccc(OP(C)(=O)Nc2ccccc2Br)cc1` (stereo not given), the activity, negative = inhibition is inactive: -7.9%.

Take `COc1ccccc1OP(C)(=O)Nc1ccc(C)c(C)c1` (stereo not given): the activity, negative = inhibition was inactive: 2.48%.

As to `Cc1cc(C)cc(OP(C)(=O)Nc2cccc(C(F)(F)F)c2)c1` (stereo not given), the activity, negative = inhibition is inactive: -1.5%.

Regarding `CP(=O)(Nc1ccc(Cl)cc1Cl)Oc1ccccc1` (stereo not given), the activity, negative = inhibition is inactive: -2.03%.

As for `CP(=O)(OCCOc1ccccc1)OCCOc1ccccc1`, the activity, negative = inhibition is inactive: -3.67%.

With `CN(C)CCOC(=O)C(O)(c1ccccc1)C1CCCC1` (stereo not given), the activity, negative = inhibition was inactive: -10.1%.

As for `COc1ccc(OP(C)(=O)Nc2ccccn2)cc1` (stereo not given), the activity, negative = inhibition is inactive: -8.76%.

For `CCc1ccc(OP(C)(=O)O)cc1`, the activity, negative = inhibition is inactive: -3.56%.

In the case of `CP(=O)(Nc1ccccn1)Oc1ccccc1` (stereo not given), the activity, negative = inhibition is inactive: 4.07%.

`COc1ccccc1OP(C)(=O)Nc1ccc(C)cc1C` (stereo not given): the activity, negative = inhibition is inactive: -9.75%.

Regarding `Cc1c(NP(C)(=O)Oc2ccc(C(C)C)cc2)c(=O)n(-c2ccccc2)n1C` (stereo not given), the activity, negative = inhibition was inactive: 1.44%.

`CC(C)c1ccc(OP(C)(=O)Nc2ccc(SC(F)(F)F)cc2)cc1` (stereo not given): the activity, negative = inhibition was inactive: -9.09%.

Take `CP(=O)(Nc1ccccc1F)Oc1ccccc1` (stereo not given): the activity, negative = inhibition is inactive: -1.38%.

Consider `O=C(OCCN1CCN(CCOCc2ccccc2)CC1)C(O)(c1ccccc1)c1ccccc1`, for which the activity, negative = inhibition was inactive: 1.66%.

For the compound `COc1ccc(OP(C)(=O)Nc2ccc(SC(F)(F)F)cc2)cc1` (stereo not given), the activity, negative = inhibition was inactive: -2%.

With `CCOC(=O)c1ccc(NP(C)(=O)Oc2ccc(F)cc2)cc1` (stereo not given), the activity, negative = inhibition was inactive: 3.74%.

As for `CCCCCOc1ccc(NP(C)(=O)Oc2ccc(Cl)cc2Cl)cc1` (stereo not given), the activity, negative = inhibition is inactive: -12.1%.

Consider `CP(=O)(Nc1ccccc1)Oc1ccc(F)cc1` (stereo not given), for which the activity, negative = inhibition was inactive: 0.468%.

With `CCN(CC)CCCOC(=O)C(O)(c1ccccc1)C1CCCCC1` (stereo not given), the activity, negative = inhibition was inactive: 3.99%.

With `COc1ccc(NP(C)(=O)Oc2ccccc2OC)cc1` (stereo not given), the activity, negative = inhibition is inactive: -1.58%.

For the compound `CN(C)CCOC(=O)C(O)(c1ccccc1)C1CCCCC1` (stereo not given), the activity, negative = inhibition was inactive: -5.3%.

For `COc1ccc(OP(C)(=O)Nc2cccc(Br)c2)cc1` (stereo not given), the activity, negative = inhibition is inactive: -9.83%.

As for `O=[N+]([O-])c1ccc(OP2(=O)COCCO2)cc1` (stereo not given), the activity, negative = inhibition was inactive: -5.22%.

As to `CCOP(C)(=S)SCC(=O)NC(C)(CC)C(=O)O` (stereo not given), the activity, negative = inhibition is inactive: -12.4%.

Regarding `CP(=O)(Nc1ccc(SC(F)(F)F)cc1)Oc1ccc(F)cc1` (stereo not given), the activity, negative = inhibition is inactive: 6.76%.

As for `Cc1ccccc1NP(C)(=O)Nc1ccccc1C`, the activity, negative = inhibition is inactive: 6.56%.

Take `CP(=O)(Nc1ccc2c(c1)OCCO2)Oc1ccccc1` (stereo not given): the activity, negative = inhibition is inactive: -3.66%.
